Experimental data: patent publication US4371523A, “Reducing the aggregation of insulin in solution” (The Regents of the University of California, priority 1980, dated 1983)

Protein sequences, listed by entry. Tags and fused reporters are not part of them. Residues count along the entry.
UniProt P01315, 25-54 limits assumed: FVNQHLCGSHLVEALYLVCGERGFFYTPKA
UniProt P01315, 88-108 limits assumed: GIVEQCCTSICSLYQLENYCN

How the values were obtained:
[1] = system: insulin; settings: supplemental material added to insulin solution; cited from earlier work
[2] = target: T1, single component neutral pork zinc insulin (Sus scrofa, UniProt P01315); assay: Controlled shaking of zinc insulin solutions in test tubes, optical density at 600 nm; format: physicochemical; settings: zinc insulin 50 U/ml, pH 7.4, shaken 16 days at 37° C., OD at 600 nm; higher OD = greater aggregation
T1 construct: single component, neutral, pork, zinc-insulin (U.500 regular Iletin II., Eli Lilly & Company); purchased Eli Lilly & Company U.500 regular Iletin II

| Molecule | Effect in preventing the aggregation of insulin in solution over extended periods of time [1] | Optical Density ± 1 × SE [2] |
| --- | --- | --- |
| Cl [hydrochloric acid] | do not appear to have any appreciable effect |  |
| Albumin: Albumin added at 5% to the zinc insulin solution |  | 0.49 ± 0.05 |
